Values quoted from earlier work, collected in patent US7297707B2, “Benzothiazolyl derivatives” (Hoffmann-La Roche Inc., priority 2003, dated 2007).

Tested on: wild-type and CB1 receptor knockout mice
Settings: wild-type versus CB1 receptor knockout mice; cited from earlier work

## Cc1c(C(=O)NN2CCCCC2)nn(-c2ccc(Cl)cc2Cl)c1-c1ccc(Cl)cc1 [SR141716A]
  food intake: reduces food intake in wild-type but not knockout mice
